In ChEMBL document CHEMBL1130150, “Conformationally restricted analogues of trimethoprim: 2,6-diamino-8-substituted purines as potential dihydrofolate reductase inhibitors from Pneumocystis carinii and Toxoplasma gondii” (J Med Chem, 1997):

How the values were obtained:
Dihydrofolate reductase [1] = target: T1, Dihydrofolate reductase (Pneumocystis carinii, UniProt P16184)
T1 sequence (P16184 whole entry): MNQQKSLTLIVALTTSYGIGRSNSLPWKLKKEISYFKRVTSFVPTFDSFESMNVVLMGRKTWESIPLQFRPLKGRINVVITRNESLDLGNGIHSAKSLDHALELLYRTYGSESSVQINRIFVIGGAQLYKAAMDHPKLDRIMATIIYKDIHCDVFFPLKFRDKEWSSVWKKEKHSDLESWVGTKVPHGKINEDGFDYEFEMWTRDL

Dihydrofolate reductase [2] = target: T2, Dihydrofolate reductase (Rattus norvegicus, UniProt Q920D2)
T2 sequence (Q920D2 whole entry): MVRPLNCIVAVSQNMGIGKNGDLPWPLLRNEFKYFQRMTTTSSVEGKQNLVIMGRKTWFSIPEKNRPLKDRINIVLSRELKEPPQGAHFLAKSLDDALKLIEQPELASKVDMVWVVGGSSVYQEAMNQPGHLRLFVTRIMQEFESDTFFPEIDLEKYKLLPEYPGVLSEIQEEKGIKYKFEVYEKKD

Q: Which IC50 (Dihydrofolate reductase [1]) does the source give for COc1cc(OC)cc(-c2nc3nc(N)nc(N)c3[nH]2)c1 here?
A: 9 µM

Q: Which IC50 (Dihydrofolate reductase [2]) does the source give for Nc1nc(N)c2nc(C3c4ccccc4-c4ccccc43)[nH]c2n1 here?
A: 29.8 µM

Q: Nc1nc(N)c2nc(Cc3ccccc3)[nH]c2n1 was tested. Which IC50 (Dihydrofolate reductase [1]) did it give?
A: 9.8 µM
